From publication PMC7703681 (Journal of medicinal chemistry, 2020) come the findings set out here.

Each structure is given as a SMILES string.

In this assay the test system is ventral prostate (VP) and seminal vesicle (SV) weights. To be noted: rat, in vivo, po, 20 mg/kg.

For `C[C@](O)(Cn1cc(F)cn1)C(=O)Nc1cnc(C#N)c(C(F)(F)F)c1` [21a, (S)-N-(6-Cyano-5-(trifluoromethyl)pyridin-3-yl)-3-(4-fluoro-1H-pyrazol-1-yl)-2-hydroxy-2-methylpropanamide], the “reduction of SV weight” value was 45–50% and the “reduction of VP weight” value is recorded as “approximately 35%”.
